Test results from patent publication US5198433A, “Lactamimides as calcium antagonists” (Merrell Dow Pharmaceuticals Inc., priority 1992, dated 1993).

Biological target: T1, K^+ -depolarized guinea pig ileum or taenia (Cavia porcellus)
T1 construct: pieces of ileum, 2 cm in length, from male guinea pigs (200-400 g) were set up in isolated organ baths; from tissue; host or cells: strips of taenia from the caecum or pieces of ileum of male guinea pigs
Experiment: Antagonism of Ca^++ -induced contractions of K^+ -depolarized guinea pig taenia or ileum
Assay type: cell-based
Conditions: Table 1, Ca^++ -induced contraction, Arunlakshana & Schild
Method: Strips of taenia from the caecum or pieces of ileum, 2 cm in length, from male guinea pigs (200-400 g) were set up in isolated organ baths in Ca^++ -free K^+ Tyrode's solution (mM NaCl 137, KCl 40, NaH2 PO4 0.4, NaHCO3 11.9, glucose 5.5) and gassed with 95% O2, 5% CO2 at 37° C. Contractions were measured with isotonic transducers with a 1 g load. Cumulative dose-response curves were obtained. Tissues were then washed and incubated with the compounds for 20-25 minutes and then Ca^++ concentration response curves re-established. […] Dose ratios were determined graphically at ED50 values from the Ca^++ dose-response curve and Schild plots were constructed to determine pA2 value using inverse regression line analysis. Alternatively, when only one concentration of an antagonist was used, pA2 values were calculated according to the method of J. M. Van Rossum, Arch. Int. Pharmacodyn Ther. 143: 299-330 (1963).

`COc1ccc([C@@H]2Sc3ccccc3N(CCN(C)C)C(=O)[C@@H]2OC(C)=O)cc1` [Test Compound 17, (1)-cis-5-2-(dimethylamino)etnyl]2,3-dihydro-3-hydroxy-2-(p-methoxyphenyl)-1,5-benzothiazepin-4(5H)-one acetate, reference compound] gave a pA2 of 7.38.
